The values below are quoted from earlier work in US5054434A, “Suppression of ammonia odors from animal wastes” (W. R. Grace & Co.-Conn., priority 1989, dated 1991).

The series relates to rat. Conditions: cited from earlier work.

For `C/C=C/C=C/C(=O)O` [Sorbic, sorbic], the “Oral LD50” value was 7,400 mg/kg.
